Like-named read-outs stand apart in the source and are kept apart here.
Assays:
Type in all cases: cell-based
[1] = target: hGcgR (Homo sapiens, UniProt P47871); experiment: Functional cAMP activation in the presence of 0.1% casein (no HSA);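 also: intracellular cAMP rise after 30 min at 37 °C, read by HTRF against a cAMP standard curve, scaled from buffer only (0%) to maximal control ligand response (100%)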
[2] = target: human GcgR (Homo sapiens, UniProt P47871); experiment: Functional cAMP activity in the presence of 1% HSA
[3] = target: human GLP1-R (Homo sapiens, UniProt P43220); experiment: GLP1-R internalization assay in HEK293 cells; conditions: for Internalization % TOP: normalized to maximum concentration of GLP-1 (100%)
[4] = target: T1, hGIPR (Homo sapiens, UniProt P48546); experiment: Functional cAMP activity in the presence of 1% HSA
T1 sequence (P48546 22-466): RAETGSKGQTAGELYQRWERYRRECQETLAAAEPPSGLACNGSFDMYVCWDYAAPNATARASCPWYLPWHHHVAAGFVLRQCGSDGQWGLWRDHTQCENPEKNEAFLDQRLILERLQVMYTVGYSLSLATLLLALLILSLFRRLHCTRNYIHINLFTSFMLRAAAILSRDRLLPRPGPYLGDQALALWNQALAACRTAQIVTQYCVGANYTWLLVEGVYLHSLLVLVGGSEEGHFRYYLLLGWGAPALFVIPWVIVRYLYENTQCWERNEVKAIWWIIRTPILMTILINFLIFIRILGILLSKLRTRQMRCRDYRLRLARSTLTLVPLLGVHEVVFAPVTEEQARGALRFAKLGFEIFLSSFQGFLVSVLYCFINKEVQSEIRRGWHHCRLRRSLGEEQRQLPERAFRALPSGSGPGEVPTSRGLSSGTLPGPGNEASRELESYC

Chains of the proteins cited; added tags and fusions are not shown. Residues count along the entry.
UniProt P47871, 26-477: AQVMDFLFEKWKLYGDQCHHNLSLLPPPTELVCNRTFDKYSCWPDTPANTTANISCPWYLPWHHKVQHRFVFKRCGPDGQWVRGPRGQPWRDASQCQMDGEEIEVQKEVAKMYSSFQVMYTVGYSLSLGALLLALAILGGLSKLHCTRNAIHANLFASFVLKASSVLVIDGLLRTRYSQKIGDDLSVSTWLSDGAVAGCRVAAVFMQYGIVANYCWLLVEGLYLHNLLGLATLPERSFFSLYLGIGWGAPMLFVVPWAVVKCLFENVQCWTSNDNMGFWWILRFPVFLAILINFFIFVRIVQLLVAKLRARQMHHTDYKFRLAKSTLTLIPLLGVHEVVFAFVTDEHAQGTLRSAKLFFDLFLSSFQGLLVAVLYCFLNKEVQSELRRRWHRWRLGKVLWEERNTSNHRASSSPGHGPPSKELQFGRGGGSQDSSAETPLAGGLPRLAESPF
UniProt P43220, 24-463: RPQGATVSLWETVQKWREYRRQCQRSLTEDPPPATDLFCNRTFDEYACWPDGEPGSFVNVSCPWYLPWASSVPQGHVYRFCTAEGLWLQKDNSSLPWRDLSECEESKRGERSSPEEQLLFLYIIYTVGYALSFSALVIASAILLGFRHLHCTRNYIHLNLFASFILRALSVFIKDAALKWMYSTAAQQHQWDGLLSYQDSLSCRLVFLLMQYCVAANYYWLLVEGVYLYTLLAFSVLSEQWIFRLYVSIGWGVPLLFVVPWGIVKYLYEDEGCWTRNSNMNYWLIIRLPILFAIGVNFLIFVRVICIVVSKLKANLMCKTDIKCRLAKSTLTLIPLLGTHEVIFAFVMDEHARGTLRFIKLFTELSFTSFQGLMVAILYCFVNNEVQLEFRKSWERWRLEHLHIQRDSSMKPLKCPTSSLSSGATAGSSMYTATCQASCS

[5] = target: T2, hGLP-1R (Homo sapiens, UniProt P43220); experiment: Functional cAMP activity in the presence of 1% HSA
[6] = target: T1, hGIPR; experiment: Functional cAMP activation in the presence of 0.1% casein (no HSA)
[7] = target: T2, hGLP-1R; experiment: as above

Structure (SMILES)	EC50 [1] [nM]	EC50 [2] [nM]	EC50 [3] [nM]	Internalization % TOP [3] [%]	EC50 [4] [nM]	EC50 [5] [nM]	EC50 [6] [nM]	EC50 [7] [nM]	EC50 ([3]; HEK293 cells expressing SNAP-GLP-1R, read-out: GLP1R Internalization EC50) [nM]
CC[C@H](C)[C@H](NC(=O)[C@H](Cc1ccccc1)NC(=O)[C@H](C)NC(=O)C(C)(C)NC(=O)[C@H](CCC(N)=O)NC(=O)[C@H](C)NC(=O)[C@H](CCCCNC(=O)COCCOCCNC(=O)CC[C@H](NC(=O)CCCCCCCCCCCCCCCCC(=O)O)C(=O)O)NC(=O)[C@H](CCCCN)NC(=O)[C@H](CC(=O)O)NC(=O)[C@H](CC(C)C)NC(=O)[C@](C)(CC(C)C)NC(=O)[C@H](CCCNC(=N)N)NC(=O)[C@H](CO)NC(=O)[C@H](Cc1ccccc1)NC(=O)[C@H](CC(=O)O)NC(=O)[C@H](CO)NC(=O)[C@@H](NC(=O)[C@H](Cc1ccccc1)NC(=O)[C@@H](NC(=O)CNC(=O)[C@H](CCC(N)=O)NC(=O)C(C)(C)NC(=O)[C@@H](N)Cc1ccc(O)cc1)[C@@H](C)O)[C@@H](C)O)C(=O)N[C@@H](CCC(=O)O)C(=O)N[C@@H](Cc1ccc(O)cc1)C(=O)N[C@@H](CC(C)C)C(=O)N[C@@H](CC(C)C)C(=O)N[C@@H](CCC(=O)O)C(=O)NCC(=O)NCC(=O)N1CCC[C@H]1C(=O)N[C@@H](CO)C(=O)N[C@@H](CO)C(=O)NCC(=O)N[C@@H](C)C(=O)N1CCC[C@H]1C(=O)N1CCC[C@H]1C(=O)N1CCC[C@H]1C(=O)N[C@@H](CO)C(=O)NCC(=O)N[C@@H](CCC(=O)O)C(N)=O [Example 108]	3.95	1290	67.7	41.1	56.5	777	0.222		
CC[C@H](C)[C@H](NC(=O)[C@H](Cc1ccccc1)NC(=O)[C@H](C)NC(=O)C(C)(C)NC(=O)[C@H](CCC(N)=O)NC(=O)[C@H](C)NC(=O)[C@H](CCCCNC(=O)COCCOCCNC(=O)COCCOCCNC(=O)CC[C@H](NC(=O)CCCCCCCCCCCCCCCCC(=O)O)C(=O)O)NC(=O)[C@H](CCCCN)NC(=O)[C@H](CC(=O)O)NC(=O)[C@H](CC(C)C)NC(=O)[C@](C)(CC(C)C)NC(=O)[C@H](CCCNC(=N)N)NC(=O)[C@H](CO)NC(=O)[C@H](Cc1ccccc1)NC(=O)[C@H](CC(=O)O)NC(=O)[C@H](CO)NC(=O)[C@@H](NC(=O)[C@H](Cc1ccccc1)NC(=O)[C@@H](NC(=O)CNC(=O)[C@H](CCC(N)=O)NC(=O)C(C)(C)NC(=O)[C@@H](N)Cc1ccc(O)cc1)[C@@H](C)O)[C@@H](C)O)C(=O)N[C@@H](CCC(=O)O)C(=O)N[C@@H](Cc1ccc(O)cc1)C(=O)N[C@@H](CC(C)C)C(=O)N[C@@H](CC(C)C)C(=O)N[C@@H](CCC(=O)O)C(=O)NCC(=O)NCC(=O)N1CCC[C@H]1C(=O)N[C@@H](CO)C(=O)N[C@@H](CO)C(=O)NCC(=O)N[C@@H](C)C(=O)N1CCC[C@H]1C(=O)N1CCC[C@H]1C(=O)N1CCC[C@H]1C(=O)N[C@@H](CO)C(=O)NCC(=O)N[C@@H](CCC(=O)O)C(N)=O [Example 109]	11.2	2760	28.8	39	22.3	671	0.279	5.95	
CC[C@H](C)[C@H](NC(=O)[C@H](Cc1ccccc1)NC(=O)[C@H](C)NC(=O)C(C)(C)NC(=O)[C@H](CCC(N)=O)NC(=O)[C@H](C)NC(=O)[C@H](CCCCNC(=O)COCCOCCNC(=O)CC[C@H](NC(=O)CCCCCCCCCCCCCCCCC(=O)O)C(=O)O)NC(=O)[C@H](CCCCN)NC(=O)[C@H](CC(=O)O)NC(=O)[C@H](CC(C)C)NC(=O)[C@](C)(CC(C)C)NC(=O)[C@H](CCCNC(=N)N)NC(=O)[C@H](CO)NC(=O)[C@H](Cc1ccccc1)NC(=O)[C@H](CC(=O)O)NC(=O)[C@H](CO)NC(=O)[C@@H](NC(=O)[C@H](Cc1ccccc1)NC(=O)[C@@H](NC(=O)CNC(=O)[C@H](CCC(N)=O)NC(=O)C(C)(C)NC(=O)[C@@H](N)Cc1ccc(O)cc1)[C@@H](C)O)[C@@H](C)O)C(=O)N[C@@H](CCC(=O)O)C(=O)N[C@@H](Cc1ccc(O)cc1)C(=O)N[C@@H](CC(C)C)C(=O)N[C@@H](CC(C)C)C(=O)N[C@@H](CCC(=O)O)C(=O)NCC(=O)NCC(=O)N1CCC[C@H]1C(=O)N[C@@H](CO)C(=O)N[C@@H](CO)C(=O)NCC(=O)N[C@@H](C)C(=O)N1CCC[C@H]1C(=O)N1CCC[C@H]1C(=O)N1CCC[C@H]1C(=O)N[C@@H](CO)C(=O)NCC(=O)N[C@@H](CO)C(N)=O [Example 143]	4.51	1690	337	43	63.9	594	0.211	2.44	
CC[C@H](C)[C@H](NC(=O)[C@H](Cc1ccccc1)NC(=O)[C@H](C)NC(=O)C(C)(C)NC(=O)[C@H](CCC(N)=O)NC(=O)[C@H](C)NC(=O)[C@H](CCCCNC(=O)COCCOCCNC(=O)CC[C@H](NC(=O)CCCCCCCCCCCCCCCCCCC(=O)O)C(=O)O)NC(=O)[C@H](CCCCN)NC(=O)[C@H](CC(=O)O)NC(=O)[C@H](CC(C)C)NC(=O)[C@](C)(CC(C)C)NC(=O)[C@H](CCCCN)NC(=O)[C@H](CO)NC(=O)[C@H](Cc1ccccc1)NC(=O)[C@H](CC(=O)O)NC(=O)[C@H](CO)NC(=O)[C@@H](NC(=O)[C@H](Cc1ccccc1)NC(=O)[C@@H](NC(=O)CNC(=O)[C@H](CCC(N)=O)NC(=O)C(C)(C)NC(=O)[C@@H](N)Cc1ccc(O)cc1)[C@@H](C)O)[C@@H](C)O)C(=O)N[C@@H](CCC(=O)O)C(=O)N[C@@H](Cc1ccc(O)cc1)C(=O)N[C@@H](CC(C)C)C(=O)N[C@@H](CC(C)C)C(=O)N[C@@H](C)C(=O)NCC(=O)NCC(=O)N1CCC[C@H]1C(=O)N[C@@H](CO)C(=O)N[C@@H](CO)C(=O)NCC(=O)N[C@@H](C)C(=O)N1CCC[C@H]1C(=O)N1CCC[C@H]1C(=O)N1CCC[C@H]1C(=O)N[C@@H](CO)C(=O)N[C@@H](CO)C(=O)NCC(N)=O [Example 13]	7.19	1670		74.7	29.2	282	0.196	1.78	53.3
CC[C@H](C)[C@H](NC(=O)[C@H](Cc1ccccc1)NC(=O)[C@H](C)NC(=O)C(C)(C)NC(=O)[C@H](CCC(N)=O)NC(=O)[C@H](C)NC(=O)[C@H](CCCCNC(=O)COCCOCCNC(=O)COCCOCCNC(=O)CC[C@H](NC(=O)CCCCCCCCCCCCCCCCC(=O)O)C(=O)O)NC(=O)[C@H](CCCCN)NC(=O)[C@H](CC(=O)O)NC(=O)[C@H](CC(C)C)NC(=O)[C@](C)(CC(C)C)NC(=O)[C@H](CCCN)NC(=O)[C@H](CO)NC(=O)[C@H](Cc1ccccc1)NC(=O)[C@H](CC(=O)O)NC(=O)[C@H](CO)NC(=O)[C@@H](NC(=O)[C@H](Cc1ccccc1)NC(=O)[C@@H](NC(=O)CNC(=O)[C@H](CCC(N)=O)NC(=O)C(C)(C)NC(=O)[C@@H](N)Cc1ccc(O)cc1)[C@@H](C)O)[C@@H](C)O)C(=O)N[C@@H](CCC(=O)O)C(=O)N[C@@H](Cc1ccc(O)cc1)C(=O)N[C@@H](CC(C)C)C(=O)N[C@@H](CC(C)C)C(=O)N[C@@H](CCC(=O)O)C(=O)NC(C)(C)C(=O)NCC(=O)N[C@@H](Cc1ccncc1)C(=O)N[C@@H](CO)C(=O)N[C@@H](CO)C(=O)NCC(=O)N[C@@H](C)C(=O)N1CCC[C@H]1C(=O)N1CCC[C@H]1C(=O)N1CCC[C@H]1C(=O)N[C@@H](CO)C(=O)NCC(=O)N[C@H](C(N)=O)[C@@H](C)O [Example 184]	5.23	1050			16.2	465	0.162	5.02	
CC[C@H](C)[C@H](NC(=O)[C@H](Cc1ccccc1)NC(=O)[C@H](C)NC(=O)C(C)(C)NC(=O)[C@H](CCC(N)=O)NC(=O)[C@H](C)NC(=O)[C@H](CCCCNC(=O)CC[C@H](NC(=O)CC[C@H](NC(=O)CCCCCCCCCCCCCCCCC(=O)O)C(=O)O)C(=O)O)NC(=O)[C@H](CCCCN)NC(=O)[C@H](CC(=O)O)NC(=O)[C@H](CC(C)C)NC(=O)[C@](C)(CC(C)C)NC(=O)[C@H](CCC(N)=O)NC(=O)[C@H](CO)NC(=O)[C@H](Cc1ccccc1)NC(=O)[C@H](CC(=O)O)NC(=O)[C@H](CO)NC(=O)[C@@H](NC(=O)[C@H](Cc1ccccc1)NC(=O)[C@@H](NC(=O)CNC(=O)[C@H](CCC(N)=O)NC(=O)C(C)(C)NC(=O)[C@@H](N)Cc1ccc(O)cc1)[C@@H](C)O)[C@@H](C)O)C(=O)N[C@@H](CCC(=O)O)C(=O)N[C@@H](Cc1ccc(O)cc1)C(=O)N[C@@H](CC(C)C)C(=O)N[C@@H](CC(C)C)C(=O)N[C@@H](CCC(=O)O)C(=O)NC(C)(C)C(=O)NCC(=O)N1CCC[C@H]1C(=O)N[C@@H](CO)C(=O)N[C@@H](CO)C(=O)NCC(=O)N[C@@H](C)C(=O)N1CCC[C@H]1C(=O)N1CCC[C@H]1C(=O)N1CCC[C@H]1C(=O)N[C@@H](CO)C(=O)NCC(=O)N[C@@H](CO)C(N)=O [Example 784]	5.21	711			11.8	284	0.0587	2.09	

— US20240270821A1, “GIP/GLP1/GCG TRI-RECEPTOR AGONISTS AND USES THEREOF” (priority 2023, published 2024)
